# According to patent US6710088B2 (NPS Pharmaceuticals, Inc., priority 1996, dated 2004):
# Chains of the proteins cited; added tags and fusions are not shown. Residues count along the entry.
# UniProt P41180, 20-1078 limits assumed: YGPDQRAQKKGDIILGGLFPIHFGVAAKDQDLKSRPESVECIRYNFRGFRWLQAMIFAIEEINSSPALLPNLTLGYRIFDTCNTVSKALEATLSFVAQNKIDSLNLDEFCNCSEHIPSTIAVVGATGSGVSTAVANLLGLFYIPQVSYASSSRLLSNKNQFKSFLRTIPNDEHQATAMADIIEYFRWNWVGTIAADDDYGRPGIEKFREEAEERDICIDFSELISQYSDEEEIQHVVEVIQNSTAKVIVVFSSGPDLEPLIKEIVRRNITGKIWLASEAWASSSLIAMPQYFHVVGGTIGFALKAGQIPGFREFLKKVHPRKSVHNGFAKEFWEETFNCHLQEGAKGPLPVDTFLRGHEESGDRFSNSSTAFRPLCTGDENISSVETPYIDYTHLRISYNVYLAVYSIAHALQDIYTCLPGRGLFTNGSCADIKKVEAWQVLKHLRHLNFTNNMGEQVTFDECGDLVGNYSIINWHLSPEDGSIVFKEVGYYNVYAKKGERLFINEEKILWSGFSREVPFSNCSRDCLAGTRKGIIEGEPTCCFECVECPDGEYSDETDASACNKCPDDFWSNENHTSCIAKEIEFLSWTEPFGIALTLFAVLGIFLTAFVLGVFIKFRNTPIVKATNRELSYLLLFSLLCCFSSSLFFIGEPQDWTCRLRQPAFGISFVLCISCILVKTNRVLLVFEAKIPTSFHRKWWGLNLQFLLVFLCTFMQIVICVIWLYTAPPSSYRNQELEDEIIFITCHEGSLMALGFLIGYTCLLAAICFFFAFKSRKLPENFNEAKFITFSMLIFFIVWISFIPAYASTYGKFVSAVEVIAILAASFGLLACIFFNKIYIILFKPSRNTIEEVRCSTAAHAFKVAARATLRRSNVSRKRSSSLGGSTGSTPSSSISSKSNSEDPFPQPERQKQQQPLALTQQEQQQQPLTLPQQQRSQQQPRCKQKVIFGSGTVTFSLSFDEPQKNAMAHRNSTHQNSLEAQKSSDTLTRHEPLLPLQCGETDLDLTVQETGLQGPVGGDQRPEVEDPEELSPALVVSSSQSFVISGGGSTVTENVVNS
# Molecular target: calcium receptor (Homo sapiens, UniProt P41180)
# Experiment: Calcium receptor activity in recombinant HEK 293 4.0-7 cells (fluorescence of dye-loaded cells)
# Settings: recombinant HEK 293 4.0-7 cells containing a calcium receptor; 1 mM CaCl2, 1 mM MgCl2; fluorescence 340/510 nm
# Procedure: Recombinant HEK 293 4.0-7 cells containing a calcium receptor were constructed as described by Rogers et al., J. Bone Miner. Res. 10 Suppl. 1:S483, 1995 (hereby incorporated by reference herein). The recombinant cells were loaded with fura-2 by incubating the cells in Dulbecco's modified Eagle's medium buffered with 20 mM HEPES containing about 5 μM […] for one hour at room temperature. Cells were then rinsed with Hank's balanced salt solution buffered with 20 mM HEPES containing 1 mM CaCl2 and 1 mM MgCl2. Compounds to be tested were then added to the cells and fluorescence was measured (excitation and emission wavelengths of 340 and 510 nm, respectively).
row,SMILES,EC50
1,C[C@@H](NCc1ccco1)c1cccc2ccccc12,602 nM
2,COc1cccc([C@@H](C)NCCCc2cccc(Cl)c2)c1,286 nM
3,C[C@@H](NCc1ccc(I)c(Cl)c1)c1cccc2ccccc12,9.5 nM
4,"COc1cccc([C@@H](C)NC(C)/C=C/c2cccc(OC(F)(F)F)c2)c1 (single isomer, unassigned) [Compound 27F]",230 nM
5,C[C@@H](NCc1ccc(Br)c(Cl)c1)c1cccc2ccccc12,12 nM
6,C[C@@H](NCc1cccs1)c1cccc2ccccc12,1200 nM
7,C[C@@H](NCCc1ccccc1Cl)c1cccc(OCC(=O)O)c1,22000 nM
8,C[C@@H](NCc1ccc(Br)c(Br)c1)c1cccc2ccccc12,22 nM
9,C[C@@H](NCCCCc1cc(Cl)ccc1Cl)c1cccc2ccccc12,170 nM
10,"CC(NCCCc1ccccc1Cl)c1cccc2c1OCO2 (single isomer, unassigned) [Compound 28D]",7300 nM
11,COc1cccc([C@@H](C)NCCOc2ccccc2Cl)c1,1800 nM
12,COc1cccc([C@@H](C)NCCCc2ccc(C#N)cc2)c1,2550 nM
13,COc1cccc([C@@H](C)NC/C=C/c2ccccc2Cl)c1,52 nM
14,C[C@@H](N[C@H](C)c1cccc2ccccc12)c1cc2ccccc2o1,57 nM
15,C[C@@H](NCc1ccsc1)c1cccc2ccccc12,1100 nM
16,COc1cccc([C@@H](C)NCCCc2ncccn2)c1,303 nM
17,COc1ccc([C@H](N[C@H](C)c2cccc3ccccc23)C(C)C)cc1C,1600 nM
18,COc1cccc([C@@H](C)NCCCc2ccc(Cl)c(Cl)c2)c1,810 nM
19,CC(C)(NCCCc1ccccc1Cl)c1cccc2ccccc12,1100 nM

row,SMILES,EC50
1,C[C@@H](NCc1ccoc1)c1cccc2ccccc12,3000 nM
2,C[C@@H](NCc1ccc(I)c(Br)c1)c1cccc2ccccc12,16 nM
3,CC(C)(NCCCc1cccc(C(F)(F)F)c1)c1cccc2ccccc12,1500 nM
4,CCCC[C@@H](N[C@H](C)c1cccc2ccccc12)c1ccc(OC)c(C)c1,23 nM
5,COc1ccc(CN[C@H](C)c2cccc3ccccc23)cc1I,24 nM
6,"CC(/C=C/c1cccc(OC(F)(F)F)c1)N[C@H](C)c1cccc2ccccc12 (single isomer, unassigned) [Compound 27V]",140 nM
7,FC(F)(F)c1cccc(CCCN2CCc3ccccc3C2)c1,> 3000 nM
8,COc1cccc(CNCCCc2cccc(Cl)c2)c1,10900 nM
9,"CC(NCCCc1ccccc1Cl)c1cccc2c1OCO2 (single isomer, unassigned) [Compound 28C]",270 nM
10,COc1cccc([C@@H](C)NCCCc2cccc(Cl)c2Cl)c1,210 nM
11,COc1cccc(C(C)(C)NCCCc2cccc(C(F)(F)F)c2)c1,2900 nM
12,"COc1cccc([C@@H](C)NC(C)/C=C/c2cccc(OC(F)(F)F)c2)c1 (single isomer, unassigned) [Compound 27G]",70 nM
13,"CC(/C=C/c1cccc(OC(F)(F)F)c1)N[C@H](C)c1cccc2ccccc12 (single isomer, unassigned) [Compound 27U]",210 nM
14,COc1cccc([C@@H](C)NCCCc2ccc(Cl)cc2Cl)c1,660 nM
15,COc1cccc(C(C)(C)NCCCc2ccccc2)c1,12000 nM
16,COc1cccc([C@@H](C)NCCCc2ccccc2C#N)c1,960 nM
17,C[C@@H](NCc1csc2ccccc12)c1cccc2ccccc12,2750 nM
18,CC(NCCCc1ccccc1Cl)c1cccc(Cl)c1Cl (centres unmarked),3800 nM
19,CCC[C@@H](N[C@H](C)c1cccc2ccccc12)c1ccc(OC)c(C)c1,29 nM
